Assay results: patent US7740882B2, “Enhanced oral and transcompartmental delivery of therapeutic or diagnostic agents” (priority 2001, dated 2010)

Columns and labels:
[1] = molecular target: T1, SMVT (Homo sapiens, UniProt Q9Y289)
T1 sequence (Q9Y289 1-635): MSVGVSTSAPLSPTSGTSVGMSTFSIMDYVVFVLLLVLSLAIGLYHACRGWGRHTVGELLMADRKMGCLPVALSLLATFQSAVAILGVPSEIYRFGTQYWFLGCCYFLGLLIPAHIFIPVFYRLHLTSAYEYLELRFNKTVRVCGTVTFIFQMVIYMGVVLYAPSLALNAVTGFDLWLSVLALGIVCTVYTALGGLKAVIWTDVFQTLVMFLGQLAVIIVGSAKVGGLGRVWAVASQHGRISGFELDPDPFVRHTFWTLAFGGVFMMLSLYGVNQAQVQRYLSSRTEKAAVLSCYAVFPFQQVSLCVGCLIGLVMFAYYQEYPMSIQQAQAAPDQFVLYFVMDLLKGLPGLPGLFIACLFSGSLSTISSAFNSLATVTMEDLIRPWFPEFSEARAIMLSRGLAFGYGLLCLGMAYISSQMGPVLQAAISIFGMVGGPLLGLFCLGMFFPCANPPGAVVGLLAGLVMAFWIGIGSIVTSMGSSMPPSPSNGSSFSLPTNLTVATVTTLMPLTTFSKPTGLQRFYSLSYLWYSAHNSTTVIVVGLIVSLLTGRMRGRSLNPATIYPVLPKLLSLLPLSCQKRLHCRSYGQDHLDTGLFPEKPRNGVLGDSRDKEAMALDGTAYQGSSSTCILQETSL

[2] = molecular target: T1, SMVT; remark: listed apart in the source
[3] = molecular target: T2, SMVT in BBMECs (Bos taurus, UniProt A1L530); test: Biotin uptake by BBMECs (characterization of biotin transporter); assay type: in vitro ADME, bovine; conditions: Hill equation
T2 construct: endogenous in cells; host or cells: primary bovine brain microvessel endothelial cells (BBMECs)
T2 sequence (A1L530 1-638): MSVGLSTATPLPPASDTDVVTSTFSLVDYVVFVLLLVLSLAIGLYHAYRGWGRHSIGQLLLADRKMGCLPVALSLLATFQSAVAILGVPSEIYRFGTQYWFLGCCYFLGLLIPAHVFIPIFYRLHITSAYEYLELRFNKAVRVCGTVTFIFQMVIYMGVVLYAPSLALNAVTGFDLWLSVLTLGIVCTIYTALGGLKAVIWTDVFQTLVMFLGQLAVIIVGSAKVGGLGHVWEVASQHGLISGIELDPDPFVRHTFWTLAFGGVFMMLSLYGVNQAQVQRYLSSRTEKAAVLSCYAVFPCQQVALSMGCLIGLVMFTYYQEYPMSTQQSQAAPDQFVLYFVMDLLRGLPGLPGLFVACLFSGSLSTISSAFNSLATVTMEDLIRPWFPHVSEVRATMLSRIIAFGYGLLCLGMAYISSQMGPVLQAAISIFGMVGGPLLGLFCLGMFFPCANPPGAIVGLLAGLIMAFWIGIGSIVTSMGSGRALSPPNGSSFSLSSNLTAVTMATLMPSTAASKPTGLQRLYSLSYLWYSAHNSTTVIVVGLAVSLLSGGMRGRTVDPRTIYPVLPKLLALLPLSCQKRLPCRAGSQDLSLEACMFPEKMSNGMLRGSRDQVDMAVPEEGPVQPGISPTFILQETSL

SMILES: O=C(O)CCCC[C@@H]1SC[C@@H]2NC(=O)N[C@@H]21 [Biotin, biotin]
- Ki [1]: 6.78 µM
- Ki [2]: 7.88 µM
- Na+-biotin coupling ratio for SMVT [3]: 1

Where two headings read alike, the source gives them in different places.
